US20230106353A1 (OXFORD UNIVERSITY INNOVATION, published 2023)

T1: Ornithine Decarboxylase (ODC), His6-ODC-Ctag (human, UniProt P11926 1-461)
T1 construct: also called ODC1; wild type ODC; not shown: C-tag
T1 sequence: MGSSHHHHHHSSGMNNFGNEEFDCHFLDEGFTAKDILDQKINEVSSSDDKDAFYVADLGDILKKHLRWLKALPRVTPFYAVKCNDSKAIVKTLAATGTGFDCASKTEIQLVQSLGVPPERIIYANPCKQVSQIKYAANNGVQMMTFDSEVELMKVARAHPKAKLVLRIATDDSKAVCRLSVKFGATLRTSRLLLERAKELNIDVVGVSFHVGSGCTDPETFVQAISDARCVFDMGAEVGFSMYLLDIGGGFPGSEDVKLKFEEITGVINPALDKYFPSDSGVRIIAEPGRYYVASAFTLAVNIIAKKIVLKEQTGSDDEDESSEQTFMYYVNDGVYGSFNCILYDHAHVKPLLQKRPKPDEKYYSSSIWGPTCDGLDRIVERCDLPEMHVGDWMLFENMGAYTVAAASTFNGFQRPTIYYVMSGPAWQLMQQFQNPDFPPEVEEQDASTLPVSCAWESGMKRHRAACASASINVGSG

B1: chimeric protein of SEQ ID NO: 9 (AP-GSS-His6-OAZ, linker, SPM of FrpA) (other)
chain: MGSGLNDIFEAQKIEWHEGSSHHHHHHFYSDDRLNVTEELTSNDKTRILNVQSRLTDAKRINWRTVLSGGSLYIEIPGGALPEGSKDSFAVLLEFAEEQLRADHVFIAFHKNREDRAALLRTFSFLGFEIVRPGHPLVPKRPDACFMAYTFEGVYDPLALDLDGDGIETVAAKGFAGALFDHRNQGIRTATGWVSADDGLLVRDLNGNGIIDNGAELFGDNTKLADGSFAKHGYAALAELDSNGDNIINAADAAFQTLRVWQDLNQDGISQANELRTLEELGIQSLDLAYKDVNKNLGNGNTLAQQGSYTKTDGTTAKMGDLLLAADNLHSRFKDKVELTAEQAKAANLAGIGRLRDLREAAALSGDLANMLKAYSAAETKEAQLALLDNLIHKWAETD
B2: chimeric protein of SEQ ID NO: 10 (AP-GSS-His6-OAZ, linker, SPM of FrpC) (other)
chain: MGSGLNDIFEAQKIEWHEGSSHHHHHHFYSDDRLNVTEELTSNDKTRILNVQSRLTDAKRINWRTVLSGGSLYIEIPGGALPEGSKDSFAVLLEFAEEQLRADHVFIAFHKNREDRAALLRTFSFLGFEIVRPGHPLVPKRPDACFMAYTFEGVYDPLALDLDGDGIETVATKGFAGSLFDHTNNGIRTATGWVSADDGLLVRDLNGNGIIDNGAELFGDNTKLADGSFAKHGYAALAELDSNGDNIINAADAAFQTLRVWQDLNQDGISQANELRTLEELGIQSLDLAYKDVNKNLGNGNTLAQQGSYTKTDGTTAKMGDLLLAADNLHSRFKDKVELTAEQAKAANLAGIGRLRDLREAAALSGDLANMLKAYSAAETKEAQLALLDNLIHKWAETD
B3:  (other)
chain: MGSGLNDIFEAQKIEWHEGSSHHHHHHFYSDDRLNVTEELTSNDKTRILNVQSRLTDAKRINWRTVLSGGSLYIEIPGGALPEGSKDSFAVLLEFAEEQLRADHVFIAFHKNREDRAALLRTFSFLGFEIVRPGHPLVPKRPDACFMAYTFEGIVDPLALDLDGNGIQTTATAGFSGSLFDHNKDGIRTATGWVASGDGLLVRDLNGNGIIDNGGELFGENTLLADGTLAQHGYAALAELDSNADGVVDANDAAFATLRVWQDKNQDGISQADELHTLADLGIQSLNTAYEDVNQDLGNGNSIAQLGSYTKTDGSTAEMADLLFHNDHLYSRFAERIELTAEQSRAANLSGIGRVRDLREAAALFGDLSATLQSYSQADTKQVQMALLDKLVQKWAETD
B4:  (other)
chain: MGSGLNDIFEAQKIEWHEGSSHHHHHHFYSDDRLNVTEELTSNDKTRILNVQSRLTDAKRINWRTVLSGGSLYIEIPGGALPEGSKDSFAVLLEFAEEQLRADHVFIAFHKNREDRAALLRTFSFLGFEIVRPGHPLVPKRPDACFMAYTFEGGYDPLILDLDGKGIQTLAPSSISARFDHNADGIATATGWAAAGNGILALDLDNNGKIDSGKEIFGNHSVLSNGTAAAHGYAALAELDSNADGIISALDDTFSSLKVWQDINQDGISQSNELFTLQALGIQSLNLEHQENSKDLGNGNRLTHIGSYTKTDGTTGEMGDVEFASNSLYSRYTDTIELTPEQLQAPNLHGTGRLRDLREAAALSTGLAEILKQYSAAQTKEEQTALLSELVAKWGATD

Each binder was assayed against T1, Ornithine Decarboxylase (ODC), … (assay: calcium-induced covalent conjugation, 10 µM each overnight at 37° C., SDS-PAGE).
B1: binds. B2: binds. B3: binds. B4: binds.
